Patent US9694016B2 (Novartis AG, priority 2013, dated 2017)

Protein sequences, listed by entry. Tags and fused reporters are not part of them.
UniProt P04049, whole entry Y340E/Y341E: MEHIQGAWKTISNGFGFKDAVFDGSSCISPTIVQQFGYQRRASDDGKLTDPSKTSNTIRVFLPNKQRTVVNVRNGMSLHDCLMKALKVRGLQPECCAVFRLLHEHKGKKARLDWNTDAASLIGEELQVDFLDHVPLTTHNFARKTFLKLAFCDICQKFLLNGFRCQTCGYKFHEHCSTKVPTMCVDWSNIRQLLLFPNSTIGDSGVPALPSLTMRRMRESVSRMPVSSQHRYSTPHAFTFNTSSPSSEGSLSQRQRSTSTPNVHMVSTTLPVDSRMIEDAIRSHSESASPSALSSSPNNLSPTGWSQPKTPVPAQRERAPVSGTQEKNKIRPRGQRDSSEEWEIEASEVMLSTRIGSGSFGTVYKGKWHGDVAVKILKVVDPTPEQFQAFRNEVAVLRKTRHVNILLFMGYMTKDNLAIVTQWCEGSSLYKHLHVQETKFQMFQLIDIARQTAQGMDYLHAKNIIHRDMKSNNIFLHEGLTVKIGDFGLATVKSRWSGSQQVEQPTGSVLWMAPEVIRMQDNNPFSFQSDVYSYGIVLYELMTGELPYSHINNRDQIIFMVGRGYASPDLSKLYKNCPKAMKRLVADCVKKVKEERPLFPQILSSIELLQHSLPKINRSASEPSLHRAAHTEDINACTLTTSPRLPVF

Molecular target: C-Raf FL (full-length C-Raf protein, Y340E and Y341E activating mutations) (Homo sapiens (Human), UniProt P04049, Y340E/Y341E)
Type: biochemical
Details: AlphaScreen, 60 min pre-incubation, reaction 1 hour at room temperature; read-out: c-Raf FL IC-50

| IC50 | SMILES |
| --- | --- |
| 3.71 nM | Cc1ncc(NC(=O)c2ccnc(C(F)F)c2)cc1-c1cc(NCCO)nc(N2CCOC[C@H]2C)c1 [Example 1141, (R)-2-(difluoromethyl)-N-(2′-((2-hydroxyethyl)amino)-2-methyl-6′-(3-methylmorpholino)-[3,4′-bipyridin]-5-yl)isonicotinamide] |
| 1.1 nM | CCOc1cc(-c2cc(NC(=O)c3ccnc(C(C)(C)F)c3)cnc2C)cc(N2CCOCC2)n1 [Example 1142, N-(2′-ethoxy-2-methyl-6′-morpholino-[3,4′-bipyridin]-5-yl)-2-(2-fluoropropan-2-yl)isonicotinamide] |
| 0.54 nM | CCOc1cc(-c2cc(NC(=O)c3ccnc(C(C)(F)F)c3)cnc2C)cc(N2CCOCC2)n1 [Example 1143, 2-(1,1-difluoroethyl)-N-(2′-ethoxy-2-methyl-6′-morpholino-[3,4′-bipyridin]-5-yl)isonicotinamide] |
| 0.46 nM | Cc1ccc(NC(=O)c2ccnc(C(C)(C)F)c2)cc1-c1cc(C2COCCO2)nc(N2CCOCC2)c1 (stereo not drawn) [Example 1144, N-(3-(2-(1,4-dioxan-2-yl)-6-morpholinopyridin-4-yl)-4-methylphenyl)-2-(2-fluoropropan-2-yl)isonicotinamide] |
| 0.4 nM | Cc1ccc(NC(=O)c2ccnc(C(C)(F)F)c2)cc1-c1cc(C2COCCO2)nc(N2CCOCC2)c1 (stereo not drawn) [Example 1145] |
| 0.32 nM | CCOc1cc(-c2cc(NC(=O)c3ccnc(C(F)F)c3)cnc2C)cc(N2CCOCC2)n1 [Example 1146, 2-(difluoromethyl)-N-(2′-ethoxy-2-methyl-6′-morpholino-[3,4′-bipyridin]-5-yl)isonicotinamide] |

The next lines start with the compound.

| SMILES | IC50 |
| --- | --- |
| Cc1ccc(NC(=O)c2ccnc(C(F)(F)F)c2)cc1-c1cc(N2CCNCC2)nc(N2CCOCC2)c1 [Example 1128, N-(4-methyl-3-(2-morpholino-6-(piperazin-1-yl)pyridin-4-yl)phenyl)-2-(trifluoromethyl)isonicotinamide] | 0.74 nM |
| Cc1ncc(NC(=O)c2cccc(C(F)(F)F)c2)cc1-c1cc(N2CCNCC2)nc(N2CCOCC2)c1 [Example 1129, N-(2-methyl-2′-morpholino-6′-(piperazin-1-yl)-[3,4′-bipyridin]-5-yl)-3-(trifluoromethyl)benzamide] | 1.26 nM |
| Cc1ccc(NC(=O)c2ccnc(C(F)(F)F)c2)cc1-c1cc(N2CCOCC2)nc(N2CCC(O)C2)c1 (stereo not drawn) [Example 1130, N-(3-(2-(3-hydroxypyrrolidin-1-yl)-6-morpholinopyridin-4-yl)-4-methylphenyl)-2-(trifluoromethyl)isonicotinamide] | 0.67 nM |
| CCOc1cc(-c2cc(NC(=O)c3ccnc(C(F)(F)F)c3)ccc2C)cc(N2CCOCC2)n1 [Example 1133, N-(3-(2-ethoxy-6-morpholinopyridin-4-yl)-4-methylphenyl)-2-(trifluoromethyl)isonicotinamide] | 0.3 nM |
| Cc1ccc(NC(=O)c2cccc(C(F)(F)F)c2)cc1-c1ccnc(N2CCOCC2=O)c1 [Example 1134] | 0.82 nM |
| Cc1ncc(NC(=O)c2cccc(C(F)(F)F)c2)cc1-c1ccnc(N2CCOCC2=O)c1 [Example 1135, N-(2-methyl-2′-(3-oxomorpholino)-[3,4′-bipyridin]-5-yl)-3-(trifluoromethyl)benzamide] | 7.35 nM |
| Cc1ncc(NC(=O)c2ccnc(C(C)C)c2)cc1-c1ccnc(N2CCOCC2)c1 [Example 1136, 2-isopropyl-N-(2-methyl-2′-morpholino-[3,4′-bipyridin]-5-yl)isonicotinamide] | 0.58 nM |
| Cc1ncc(NC(=O)c2ccnc(C(C)(F)F)c2)cc1-c1cc(NCCO)nc(N2CCOC[C@H]2C)c1 [Example 1139, (R)-2-(1,1-difluoroethyl)-N-(2′-((2-hydroxyethyl)amino)-2-methyl-6′-(3-methylmorpholino)-[3,4′-bipyridin]-5-yl)isonicotinamide] | 2.8 nM |
| Cc1ncc(NC(=O)c2ccnc(C(F)(F)F)c2)cc1-c1cc(NCCO)nc(N2CCOC[C@H]2C)c1 [Example 1140, (R)—N-(2′-((2-hydroxyethyl)amino)-2-methyl-6′-(3-methylmorpholino)-[3,4′-bipyridin]-5-yl)-2-(trifluoromethyl)isonicotinamide] | 2.89 nM |
